Reference: ChEMBL document CHEMBL5726225, “Quinoline carboxamide and quinoline carbonitrile derivatives as mGluR2-negative allosteric modulators, compositions, and their use” (2017)

Sequences of proteins named here, by UniProt entry; tags and fusion partners are left off. A change or cut given only in a name is not applied to a line headed by its entry.
UniProt Q14416: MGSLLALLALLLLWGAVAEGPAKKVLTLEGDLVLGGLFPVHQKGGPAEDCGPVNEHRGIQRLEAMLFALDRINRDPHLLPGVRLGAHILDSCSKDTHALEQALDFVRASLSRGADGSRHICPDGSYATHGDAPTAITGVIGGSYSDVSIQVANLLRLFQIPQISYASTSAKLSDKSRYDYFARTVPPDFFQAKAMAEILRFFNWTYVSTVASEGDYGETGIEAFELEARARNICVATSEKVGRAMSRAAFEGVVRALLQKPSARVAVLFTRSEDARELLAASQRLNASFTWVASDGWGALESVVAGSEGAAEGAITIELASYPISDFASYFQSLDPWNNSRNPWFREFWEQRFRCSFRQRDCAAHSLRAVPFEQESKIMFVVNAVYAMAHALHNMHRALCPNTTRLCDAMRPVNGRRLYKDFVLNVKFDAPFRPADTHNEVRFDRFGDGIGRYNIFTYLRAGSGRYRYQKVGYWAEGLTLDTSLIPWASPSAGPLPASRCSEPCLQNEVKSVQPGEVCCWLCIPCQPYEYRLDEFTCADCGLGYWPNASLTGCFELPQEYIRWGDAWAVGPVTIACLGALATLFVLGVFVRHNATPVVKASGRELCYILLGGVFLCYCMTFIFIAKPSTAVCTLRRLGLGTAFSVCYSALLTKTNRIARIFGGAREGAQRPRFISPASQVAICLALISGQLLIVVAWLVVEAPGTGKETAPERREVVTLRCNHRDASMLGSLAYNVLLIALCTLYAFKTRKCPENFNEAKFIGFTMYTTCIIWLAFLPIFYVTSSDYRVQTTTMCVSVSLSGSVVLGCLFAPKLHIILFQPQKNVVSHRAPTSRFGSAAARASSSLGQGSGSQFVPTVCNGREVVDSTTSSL

Biological target: Metabotropic glutamate receptor 2 (Homo sapiens, UniProt Q14416)
Test: Biological Assay: The utility of the compounds in accordance with the present invention as antagonists of metabotropic glutamate receptor activity, in particular mGluR2 activity, may be demonstrated by methodology known in the art. Antagonist constants are determined as follows. The compounds of the present invention were tested in a fluorescence laser imaging plate reader based assay. This assay …
Assay type: cell-based

| IC50 [nM] | Structure (SMILES) |
| --- | --- |
| 171 | NC(=O)c1cc(-c2c(Cl)cc(F)cc2Cl)c2ccccc2n1 |
| 24 | CCC(O)(c1nnnn1Cc1ccc2c(-c3ccc(F)cc3)cc(C(N)=O)nc2c1)C(F)(F)F (configuration not stated) |
